Test results: patent US7175991B2, “Method of measuring binding site on plasma protein of plasma protein-binding drug and method of measuring plasma protein mutation” (Nihon Medi-Physics Co., Ltd., priority 2002, dated 2007)

Chains of the proteins cited; added tags and fusions are not shown. Residues count along the entry.
UniProt P02768, 25-609: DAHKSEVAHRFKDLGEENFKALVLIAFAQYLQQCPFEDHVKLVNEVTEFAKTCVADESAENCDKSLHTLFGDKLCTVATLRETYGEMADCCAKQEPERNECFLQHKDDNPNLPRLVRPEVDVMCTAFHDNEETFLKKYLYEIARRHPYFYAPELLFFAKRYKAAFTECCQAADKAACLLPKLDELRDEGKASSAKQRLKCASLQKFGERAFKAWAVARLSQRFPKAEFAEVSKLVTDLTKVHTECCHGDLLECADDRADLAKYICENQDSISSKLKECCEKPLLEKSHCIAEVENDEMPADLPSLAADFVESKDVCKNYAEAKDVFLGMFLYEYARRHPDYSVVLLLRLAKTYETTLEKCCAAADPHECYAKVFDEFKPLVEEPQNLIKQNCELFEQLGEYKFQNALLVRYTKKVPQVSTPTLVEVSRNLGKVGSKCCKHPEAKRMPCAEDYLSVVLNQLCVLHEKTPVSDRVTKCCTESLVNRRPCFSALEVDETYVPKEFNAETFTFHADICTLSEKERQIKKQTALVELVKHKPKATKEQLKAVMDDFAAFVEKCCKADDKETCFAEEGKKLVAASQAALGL

Experiments:
HSA Site II and AGP = conditions: human serum 1, four nuclides
HSA Site II = HSA Site II (Homo sapiens, UniProt P02768); conditions: 400 μM, pH 7.4

Row | Displacement effect on drug with affinity to both site II of HSA and AGP (^125I-IMP), in words (HSA Site II and AGP) | Change ratio (time) of ^14C-DZP free drug ratio (HSA Site II) [time] | SMILES
1 | exhibited displacement effect | – | CC(C)Cc1ccc(C(C)C(=O)O)cc1 (centres unmarked) [IPF, ibuprofen]
2 | – | 1.06 | CC(C)NCC(O)COc1cccc2ccccc12 (centres unmarked) [PPL, propranolol]
